Drawing on US5773424A, “Treatment of toxoplasmosis” (priority 1994, dated 1998), this text covers Ki for one compound.

Protein sequences, listed by entry. Tags and fused reporters are not part of them. Lines headed by an entry give the natural chain unless they say otherwise; changes in a name come on top.
UniProt Q9TVW2: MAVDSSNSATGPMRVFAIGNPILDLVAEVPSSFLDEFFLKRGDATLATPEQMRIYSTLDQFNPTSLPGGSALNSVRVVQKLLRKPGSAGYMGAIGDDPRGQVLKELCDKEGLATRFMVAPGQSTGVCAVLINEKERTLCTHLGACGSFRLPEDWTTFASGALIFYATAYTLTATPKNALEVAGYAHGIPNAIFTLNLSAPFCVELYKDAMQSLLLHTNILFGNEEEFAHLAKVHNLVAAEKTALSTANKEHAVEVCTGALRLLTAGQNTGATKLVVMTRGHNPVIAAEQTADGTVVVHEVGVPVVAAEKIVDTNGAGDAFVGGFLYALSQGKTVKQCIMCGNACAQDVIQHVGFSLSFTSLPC

The assay addresses T. gondii adenosine kinase (Toxoplasma gondii, UniProt Q9TVW2). Kind of assay: biochemical. Conditions: AppKi for inhibition of T. gondii adenosine kinase, 5 μM adenosine; ± range, at least two estimations. The procedure:
Preparation of cytosol extracts. For the structure activity relationships studies, approximately 5×10^8 T. gondii were suspended in 1.2 ml of 50 mM N-2-hydroxyethylpiperazine-N'-2-ethanesulfonic acid (HEPES)-Cl (pH 8.0)/1 mM dithiothreitol and homogenized for 30 seconds at setting 10, using a Brinnmann Instruments Polytron homogenizer fitted with a PTA 7K1 probe. The homogenate was then centrifuged at approximately 116,000 g for 1 hour at 5° and the supernatant (cytosol extract) collected and used as the enzyme source. Fresh cytosol extracts were prepared for each experiment.
Adenosine kinase assay. T. gondii adenosine kinase activity was measured by following the formation of [^14 C]AMP from [^14 C]adenosine and ATP. […]
Reactions were started by the addition of [8-^14 C]adenosine, incubated at 37° for 10 minutes and terminated by placing the reaction tubes in a boiling water bath for 2 minutes. […] The substrate and product spots (which accounted for all of the radioactivity on the plates) were identified by UV quenching, cut out, and the radioactivity quantitated by liquid scintillation counting in 20 ml of Scintilene, using a Packard 460 scintillation counter. […] Enzyme velocity was calculated by multiplying the fraction of AMP formed from adenosine times the amount of adenosine in the assay, and dividing by the incubation time. […]

For `NC[C@H]1O[C@@H](n2cnc3c(N)ncnc32)[C@H](O)[C@@H]1O` [Compound 94, 5'-Amino-5'-deoxyadenosine], the Ki was 220 ± 40 µM.

Broadly, the Ki is a dissociation constant, usually derived from enzyme kinetics or from competition with a known ligand.
